Consider 1 compound from ChEMBL document CHEMBL2448811, “Comparison of the accuracy of experimental and predicted pKa values of basic and acidic compounds” (Pharm Res, 2013).

SMILES strings stand for the structures.

The nature of the data set: physchem.

For orientation: pKa means the pH at which an ionisable group is half protonated.

On to `CC/C(=C(\c1ccccc1)c1ccc(OCCN(C)C)cc1)c1ccccc1` [TAMOXIFEN], for which the pKa worked out at 8.71.
